Earlier results on 1 compound are cited in patent publication US20030171260A1, “Compositions and methods utilizing hydroxamates to scavenge oxidant toxins” (priority 2002, published 2003).

Structures can show the parent of a compound that is named as a salt.

The test system of this data set is rat.

Regarding `CC(=O)N(O)CCCCCNC(=O)CCC(=O)N(O)CCCCCNC(=O)CCC(=O)N(O)CCCCCN` [desferoxamine mesylate], the “intraperitoneal LD50 dose” value (intraperitoneal) was 330 mg/kg. In addition, where the note is “subcutaneous”, the “subcutaneous LD50 dose” value is on record as 5,500 mg/kg.
